# From PubChem BioAssay AID449723 (Johns Hopkins Ion Channel Center, 2010)
# Only a part is listed here, and it is no random draw. Active and inactive are the calls of the source.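 The calls were made as follows: active = hit in primary screen, with calcium signal over 5 SD above buffer well mean in both duplicates; inactive = the rest.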
# Test: calcium flux activation in mu-opioid HEK293 cells, confirmation, counter-screen for TRPC4 activator project, cell-based, HEK293 mu-opioid receptor line (AID 449723);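 also: counter screen cells carry the mu-opioid receptor alone and lack TRPC4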
# Conditions: Fluo-4 calcium fluorescence, at 10 µM
row,SMILES,outcome
1,CCN(CC)CCCOC(=O)C(O)(c1ccccc1)c1ccccc1,inactive
2,CN(C)C1(CNC(=O)c2ccc(Cl)c(S(N)(=O)=O)c2)CCCCC1,inactive
3,CN(C)CCOC(=O)C(O)(c1ccccc1)C1CCCC1 (stereo not drawn),inactive
